Binding of CDR-mutated scFvs to a peptide of the spike HR2 region

From the AlphaSeq antibody data of Engelhart et al. 2022 (doi:10.1038/s41597-022-01779-4), copy in the FLAb collection.

The target is the same throughout: PDVDLGDISGINAS, from the HR2 region of SARS-CoV-2 spike.

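The parent was found by panning a naive human phage display library on the peptide. The library (AAYL49) carries one to three amino acid substitutions per variant, with no insertions or deletions. In AlphaSeq, yeast of one mating type display the scFv and yeast of the other type display the target. Mating (16 h, 30 °C) was followed by selection of diploids and sequencing of their barcodes. Read counts were normalised to the haploid input and turned into Kd by a linear fit to BCL2-family pairs of known affinity, for each replicate. Each pool was mated in three replicate cultures.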

Ab-14 is the parent antibody, in scFv form: VH, then a 15-residue (Gly4Ser)3 linker, then VL. The light chain is unchanged in all variants.
VH: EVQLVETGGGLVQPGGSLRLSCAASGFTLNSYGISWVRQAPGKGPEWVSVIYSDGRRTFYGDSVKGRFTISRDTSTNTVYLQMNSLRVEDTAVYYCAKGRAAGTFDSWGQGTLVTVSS
VL: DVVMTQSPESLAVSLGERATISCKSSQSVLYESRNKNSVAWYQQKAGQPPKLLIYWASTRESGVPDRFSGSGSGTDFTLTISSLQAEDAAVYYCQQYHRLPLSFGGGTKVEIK

Variants are written as CDR1, CDR2 and CDR3 of the heavy chain (limits as in the source). Parent: GFTLNSYGIS, VIYSDGRRTFYGDSVK, GRAAGTFDS.
The read-out is the apparent dissociation constant on a log10 scale (nM): the lower, the stronger.
"n.d." means that the variant was in the library but no mating with the target was seen in that replicate; the authors take this as a sign of poor binding, and no number exists.
As a blank, each scFv also met three strains without target: over library AAYL49, 15% of these pairings were detected, typically at 4.06 and seldom below 2.83. Also given: how often the same scFv was detected with the empty control strains, with their mean in brackets.
Parent in this assay: reference entry 0.65, copy in this library 4.11 (one replicate of three).

CDR-H1	CDR-H2	CDR-H3	log10 Kd, replicates	signal with controls
GFTLNSYGIS	VIYSDGRRTFYGDSVK	GRAQGTADS	n.d. n.d. n.d.	0 of 9
GFTLNSYGIS	VIYGEGRRTFYGDSMK	GRAAGTFDS	n.d. 4.22 n.d.	1 of 9 (5.59)
IFTLNSTGIS	VIYSDGRRTFYGDSVK	GGAAGTFDS	n.d. n.d. 5.49	2 of 9 (4.77)
GFTLNSYGIQ	VIYSDGRRTFYGDSVK	GWAEGTFDS	n.d. n.d. n.d.	0 of 9
GSTLNSYGIS	VIHSDGRRKFYGDSVK	GRAAGTFDS	4.44 n.d. n.d.	2 of 9 (4.59)
GSTLNSYGIS	VIYSDGFRTFYGDSVK	WRAAGTFDS	4.77 4.44 n.d.	6 of 9 (4.11)
GFTLNFYGIS	VIYSDGRRTFYGDSVK	KRAAGTFDK	n.d. n.d. n.d.	0 of 9
GFTLNSYGPS	VKYSDGRRTFYHDSVK	GRAAGTFDS	4.35 4.62 n.d.	9 of 9 (5.30)
GFTLNSYGIS	VIDQDGRRTFYGDSFK	GRAAGTFDS	n.d. n.d. 5.12	0 of 9
GFTLNSYGIS	VIYSDGRRTFYGDFVK	KRAAGTFDG	n.d. n.d. n.d.	0 of 9
GFTLNSYGIS	VIYSDGRRTFYGEIVK	GRAPGTFDS	n.d. n.d. n.d.	0 of 9
GFTLNCYGIS	VYYSDGRRTRYGDSVK	GRAAGTFDS	n.d. n.d. n.d.	0 of 9
GFYLNSYGIS	VIYSMGNRTFYGDSVK	GRAAGTFDS	n.d. n.d. 4.66	5 of 9 (3.96)
GFTLNSYGIS	VIYSDGRRTAYGDSVK	GRAAGTFDS	0.59 0.65 0.61	0 of 9
GFTLNSYGIS	VFYSDGRRTFYGDKVK	GRAAFTFDS	n.d. n.d. n.d.	0 of 9
GFTLNSYGPS	VIYSDGRRTCYGRSVK	GRAAGTFDS	3.95 n.d. n.d.	1 of 9 (3.81)
HFTLNSYGIS	VKYSDGRRTFYGDSVK	ARAAGTFDS	n.d. 3.86 n.d.	0 of 9
EFTLNSYGIS	VIYSDGRRTFYGDSVK	GMAAGTFDS	n.d. 3.69 n.d.	0 of 9
GFTLNSYHIS	VIYSDGRRTFYEGSVK	GRAAGTFDS	n.d. n.d. n.d.	0 of 9
GFTLNSYGMS	VIYSDGRRTFYGDSVK	GRAAGWADS	1.60 1.34 1.25	1 of 9 (4.14)
GFTLNSYGIS	VIYIDYRRTWYGDSVK	GRAAGTFDS	n.d. n.d. n.d.	1 of 9 (3.20)
GFTLNSYGIF	SEYSDGRRTFYGDSVK	GRAAGTFDS	n.d. n.d. n.d.	5 of 9 (4.18)
GFTLNSYGIM	VIYSDGRRTFYGDSVK	GRAVGCFDS	n.d. n.d. n.d.	0 of 9
GFTVNSYGIS	HIYSDGRRTFYGDSVK	GRAAGPFDS	n.d. n.d. 5.64	0 of 9
GFTLNSYGIS	VIYFDGRRTWYGDSVK	GRRAGTFDS	n.d. 2.21 2.80	0 of 9
GFTCNSYGIS	VIYSDSRRTFYYDSVK	GRAAGTFDS	4.14 n.d. 3.78	0 of 9
GFTLNSYGIS	VIYSDGRRTFYGDSCK	GRAAGTFDS	1.93 2.06 2.53	0 of 9
GFTLISYGIS	VIYSDGRRTFYGDSVK	GRAAGRFDS	n.d. 3.52 n.d.	5 of 9 (4.68)
GATLNSYGIS	VIYSDERRTFYGDSVK	GRAAGTFDS	4.33 4.01 n.d.	7 of 9 (4.26)
GFTLNSYGIS	VIYSDIRRTFDGDSVP	GRAAGTFDS	n.d. 2.73 n.d.	2 of 9 (4.04)
GVTLNSYGIS	VIYSDGYRTFYGDSVT	GRAAGTFDS	4.00 n.d. n.d.	2 of 9 (3.32)
GFILNSYGIS	QIYSDGRRTFYGDSVK	GRAAGTFYS	n.d. n.d. n.d.	3 of 9 (4.00)
GFTLNSYGIS	VIYSDGRRTFYMDSVK	GRAAGTFDS	1.79 1.31 1.31	0 of 9
GFTLNSYGIS	LIYSDGRRTFYGDSVK	GRADGTFDA	n.d. n.d. 2.63	0 of 9
GFTLNSYGIT	GIYSDGRRTFYGDSVK	GRAAGTFDR	n.d. n.d. n.d.	0 of 9
GFNLNSYGIS	VIYSDGRRTFYGYSVV	GRAAGTFDS	1.73 1.60 1.54	2 of 9 (4.34)
GFTLNSYGIS	VIYSDGRRTFYGDSLK	GRAAGHFVS	n.d. n.d. n.d.	0 of 9
GFTLNSWGIS	VIYSDGRRTFYGDSVK	GRAQGTFDS	4.19 4.02 3.82	2 of 9 (4.65)
IFTLNSYGIS	VIYSDGRRTFYGDSRK	GRAAGTFDS	n.d. n.d. n.d.	0 of 9
GFTLVSYGIS	VIYSDGRRNFGGDSVK	GRAAGTFDS	n.d. n.d. n.d.	0 of 9
GFTLNSYGIS	VIYSDGRRTKYGDSSK	GRAAGTFDS	n.d. n.d. 3.65	3 of 9 (3.63)
GFTLNSTGIS	VIYSDGRRTFYGDNVK	GRAAGTLDS	4.41 n.d. 5.38	2 of 9 (4.80)
GFTLNSYGIS	VIYSDGRRTFLGFSVK	GRAFGTFDS	n.d. n.d. n.d.	0 of 9
GFTLNSYGIS	VIYSDGRRTYYGDSVY	GRAAGTFDV	n.d. n.d. n.d.	0 of 9
GKNLNSYGQS	VIYSDGRRTFYGDSVK	GRAAGTFDS	n.d. n.d. n.d.	4 of 9 (4.25)
GFTLNSYGIS	VMYKDGRRTFYGDSVK	GRWAGTFDS	n.d. n.d. n.d.	3 of 9 (4.15)
GFTLNSDGIS	VIYSDGRRTFYGDSVK	GRHAGTFDS	4.84 5.07 3.91	0 of 9
GFILNSYGIS	VIYSDGRRVFYGDSVK	GRHAGTFDS	n.d. n.d. n.d.	0 of 9
GFTLNSYGIS	AIYSDGRRTIQGDSVK	GRAAGTFDS	n.d. n.d. n.d.	0 of 9
GFTLYSYGMS	VIYSDGRRTFYGDSVK	GKAAGTFDS	2.51 3.13 2.62	1 of 9 (3.67)

The last 5 entries again:

{"CDR-H1": "GFTLNSYGIS", "CDR-H2": "VMYKDGRRTFYGDSVK", "CDR-H3": "GRWAGTFDS", "log10 Kd, replicates": "n.d. n.d. n.d.", "signal with controls": "3 of 9 (4.15)"}
{"CDR-H1": "GFTLNSDGIS", "CDR-H2": "VIYSDGRRTFYGDSVK", "CDR-H3": "GRHAGTFDS", "log10 Kd, replicates": "4.84 5.07 3.91", "signal with controls": "0 of 9"}
{"CDR-H1": "GFILNSYGIS", "CDR-H2": "VIYSDGRRVFYGDSVK", "CDR-H3": "GRHAGTFDS", "log10 Kd, replicates": "n.d. n.d. n.d.", "signal with controls": "0 of 9"}
{"CDR-H1": "GFTLNSYGIS", "CDR-H2": "AIYSDGRRTIQGDSVK", "CDR-H3": "GRAAGTFDS", "log10 Kd, replicates": "n.d. n.d. n.d.", "signal with controls": "0 of 9"}
{"CDR-H1": "GFTLYSYGMS", "CDR-H2": "VIYSDGRRTFYGDSVK", "CDR-H3": "GKAAGTFDS", "log10 Kd, replicates": "2.51 3.13 2.62", "signal with controls": "1 of 9 (3.67)"}